The results in this text go back to US10993941B2, “Methods for the administration of certain VMAT2 inhibitors” (Neurocrine Biosciences, Inc., priority 2017, dated 2021).

Protein sequences, listed by entry. Tags and fused reporters are not part of them.
UniProt Q01827, whole entry: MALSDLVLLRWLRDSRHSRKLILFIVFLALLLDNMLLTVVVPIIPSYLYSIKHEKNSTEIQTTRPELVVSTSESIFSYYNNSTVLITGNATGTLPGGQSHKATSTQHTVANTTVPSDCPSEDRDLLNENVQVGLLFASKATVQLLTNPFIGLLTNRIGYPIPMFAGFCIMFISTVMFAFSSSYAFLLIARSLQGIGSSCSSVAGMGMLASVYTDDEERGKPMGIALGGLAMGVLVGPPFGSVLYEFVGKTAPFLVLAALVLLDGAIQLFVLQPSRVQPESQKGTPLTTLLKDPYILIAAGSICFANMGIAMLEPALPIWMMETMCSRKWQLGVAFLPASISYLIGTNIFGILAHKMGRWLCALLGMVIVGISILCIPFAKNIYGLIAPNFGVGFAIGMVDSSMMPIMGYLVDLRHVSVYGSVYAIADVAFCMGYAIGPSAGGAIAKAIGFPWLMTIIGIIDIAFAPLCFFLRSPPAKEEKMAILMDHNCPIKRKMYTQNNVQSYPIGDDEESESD

In the assay the target is T1, VMAT2 (Rattus norvegicus, UniProt Q01827).
T1 construct: from tissue; host or cells: rat forebrain membranes
Type of assay: binding. The conditions noted are these: rat forebrain.

`COc1cc2c(cc1OC)[C@@H]1C[C@@H](O)[C@@H](CC(C)C)CN1CC2` [R,S,S-DHTBZ]: the “affinity weaker than R,R,R-DHTBZ” value was about 160 times.
Take `COc1cc2c(cc1OC)[C@@H]1C[C@H](O)[C@@H](CC(C)C)CN1CC2` [S,S,S-DHTBZ]: the “affinity weaker than R,R,R-DHTBZ” value is recorded as “approximately 60 times”.
